# T1: BCMA on H929 cells (Homo sapiens, UniProt Q02223, N81S)
# T1 construct: host or cells: H929
# T1 sequence (Q02223 1-184 N81S): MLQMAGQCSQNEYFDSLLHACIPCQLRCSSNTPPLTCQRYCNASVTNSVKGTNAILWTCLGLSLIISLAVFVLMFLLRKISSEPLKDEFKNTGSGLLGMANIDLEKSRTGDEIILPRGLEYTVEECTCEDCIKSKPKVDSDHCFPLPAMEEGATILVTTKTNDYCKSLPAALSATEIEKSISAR
# Experiments:
# [1] = biological target: T1, BCMA on H929 cells; experiment: FACS binding to native BCMA on H929 myeloma cells
# Description: Approximately 10 to 40×10^6 of H929 myeloma cells were resuspended in a staining solution (2% goat serum, 1% rabbit serum, 0.02% azide in PBS) and aliquoted into round-bottom, 96-well plate (Corning Incorp., Acton, Mass.) as per the experiment design. The cells were incubated at 4 degrees celsius for 30 minutes to block non-specific sites. The antibodies were titrated into the staining solution. The cells were rinsed in a rinse solution (PBS+0.02% azide) by resuspending the cells in 200 ul/well. The cells were centrifuged at 1500 rpm at 4 degrees celsius for 7 minutes. The rinse solution was removed and the rinse step was repeated. […] The cells/antibodies were rinsed as described above to remove excess/unbound antibody. After the last rinse, the cells were resuspended in 200 ul of rinse solution with a drop of staining solution added to keep the cells from aggregating.
# The antibodies were tested for binding to BCMA endogenously-expressed on a variety of cells, including the H929 cell line, which were developed from B-lymphocytes from a myeloma/plasmacytoma patient (ATCC, Manassa, Va.) using standard FACs techniques. […] The supernatants were removed and the cell pellets were resuspended in 0.2 mL/tube 4% paraformaldehyde in PBS and analyzed by flow cytometry
# [2] = tested on: H929 cells; experiment: Internalization assay (ArrayScan spot count) in H929 cells; assay type: cell-based, human
# [3] = biological target: [6xHistidine-SUMO]-huBCMA (SEQ ID NO:350) and its carboxy terminal clipped forms (Homo sapiens, UniProt Q02223); experiment: Size exclusion chromatography and LC/MS of antibody complexes with Sumo-huBCMA and clipped forms; assay type: binding; details: SEC and LC/MS
# Source text: To determine which forms of 6×His-SUMO-huBCMA were bound to the anti-huBCMA antibodies, the SEC fractions were isolated and analyzed. Carboxy-terminus fragments of the extracellular domain of human BCMA were generated as clipped forms from the rhuBCMA fusion protein (6×His::Sumo::huBCMA(aa 5-51)::GGS::G3::Avi) of SEQ ID NO:350, as shown in FIG. 45.
# A Superdex 200™ 10/30 cm SEC column (GE Healthcare Life Sciences) was used according to the manufacturer's recommendations and run in phosphate buffered saline (PBS). Incubations of antibody with excess levels of sumoBCMA were performed at room temperature for at least 30 minutes.
# A Superdex 200™ 10/30 cm SEC column (GE Healthcare Life Sciences) was used according to the manufacturer's recommended condision and run in phosphate buffered saline (PBS). Incubations of antibody with excess levels of sumoBCMA were performed at room temperature for at least 30 minutes.
# 5 ug of total proteins were reduced in 50 mM Tris/4 M guanidine/9 mM DTT, pH 8.0 at 55° C. for 15 min, and analyzed in Agilent LCTOF system using a Vydac C8 column, 2.1 mm ID×150 mm, […] particle size. […] TOF MS conditions included capillary voltage of 4000 V, drying gas flow at 10 L/min, dry gas temperature at 300° C., nebulizer gas flow at 40 L/min, and fragmentor voltage of 300 V. MS data was analyzed in Agilent MassHunter™ Qualitative Analysis program.
molecule,measurement,setting,value
"Ab-5: parental fully human anti-huBCMA mAb 2A1, Vh SEQ ID NO:214, Vl 248; heavy chain SEQ ID NO:287, light chain 288 (antibody) heavy: EVQLVESGGGLVKPGRSLRLSCTASGFTFGDYALSWFRQAPGKGLEWVGVSRSKAYGGTTDYAASVKGRFTISRDDSKSFAYLQMNSLKTEDTAVYYCCSSGYSSGWTPFDYWGQGTLVTVSSASTKGPSVFPLAPSSKSTSGGTAALGCLVKDYFPEPVTVSWNSGALTSGVHTFPAVLQSSGLYSLSSVVTVPSSSLGTQTYICNVNHKPSNTKVDKKV[omitted - human IgG1 Fc] light: QSVLTQPPSASGTPGQRVTISCSGSSSNIGSNTVNWYQQLPGTAPKLLIFNYHQRPSGVPDRFSGSKSGSSASLAISGLQSEDEADYYCAAWDDSLNGWVFGGGTELTVLGQPKAAPSVTLFPPSSEELQANKATLVCLISDFYPGAVTVAWKADSSPVKAGVETTTPSKQSNNKYAASSYLSLTPEQWKSHRSYSCQVTHEGSTVEKTVAPTECS",binding to human BCMA on the surface of H929 myeloma cell line,[1],bound to human BCMA
same,internalization following binding to BCMA on H929 cells,[2],readily internalized
same,binding to full-length and truncated fragments of human BCMA,[3],bound full-length and truncated forms of BCMA
